Assays:
[1] = test system: B. subtilis / cytotoxicity EC50; experiment: Selectivity index (SI) using B. subtilis MICs
Description: (§1) Additionally, the antimicrobial compounds were analyzed for cytotoxicity. […] We utilized the standard MTT assay (Promega CellTiter 96) and GraphPad Prism 7 software to determine EC50 values for each analogue. Briefly, 20,000 HepG2 cells in 200 μl of the ATCC recommended media were seeded in each well of a 96-well plate with a moisture barrier created in the outermost wells. The cells were allowed to attach overnight at 37° C., and then observed under phase contrast microscopy for proper morphological characteristics. If cells appeared healthy and attached, test compounds were added in 7 concentrations from […] (n=3) from freshly prepared DMSO stock plates. […] Once incubations were complete, the spectrophotometric absorbance of the samples was measured at a wavelength of 595 nm. […] For the HepaRG assay, NoSpin HepaRG™ cells (Lonza, cat #NSHPRG) were thawed and plated with 20,000 cells per well. They were allowed to attach for 4 h (optimal DME profile per Lonza's testing) before dosing following the identical protocol as above.

HepaRG cells = experiment: Cytotoxicity MTT assay in HepaRG cells; format: cell-based, human; details: Table 1; HepaRG cytotoxicity versus pathogen MIC
Description: as §1

[2] = test system: pathogens and skin commensals; details: Table 1
[3] = test system: T. rubrum, S. aureus, R. mucosa, S. epidermidis; details: on polyester fabric; FIGS. 5A-5B

SMILES	SI (selectivity index) [1]	Selectivity Index (SI) (HepaRG cells)	Selectivity Pathogens to commensal [2]	selectivity for inhibiting pathogenic microbes over commensal microbes [3]
Oc1ccccc1Sc1c[nH]c2ccc(Br)cc12 [Compound 174AI, 2-((5-bromo-1H-indol-3-yl)thio)phenol]	35.1	–	–	–
Brc1ccc2[nH]cc(Sc3ccccc3Br)c2c1 [Compound 174I, 5-bromo-3-((2-bromophenyl)thio)-1H-indole]	32.6	–	–	–
Oc1ccc(Sc2c[nH]c3ccccc23)cc1 [Compound 156I, 4-((1H-indol-3-yl)thio)phenol]	0.6	>1	>4	selectively inhibits pathogens T. rubrum over commensal microbes R. mucosa and S. epidermidis
Nc1ccccc1Sc1c[nH]c2ccc(Br)cc12 [Compound 174M, 2-((5-bromo-1H-indol-3-yl)thio)aniline]	42.4	43->85	–	–
Cc1[nH]c2ccc(Br)cc2c1Sc1ccccc1Br [Compound 174AZ, 5-bromo-3-((2-bromophenyl)thio)-2-methyl-1H-indole]	25.7	–	–	–

— patent US20250382269A1 (CFD Research Corporation, priority 2019, published 2025)
